Laboratory results from patent EP4834351A1, “PHARMACEUTICAL COMPOSITION COMPRISING ENAVOGLIFLOZIN AS ACTIVE INGREDIENT FOR PREVENTING OR TREATING ALOPECIA AREATA” (dated 2026).

Legend:
Caspase-1 [1] = assay: Histological analysis (staining) of skin, Caspase-1; details: enavogliflozin 1 mg/kg; 12 weeks; compared to vehicle group
Description: (§1) At 12 weeks, which is a time point of completion of test substance administration, skin was excised and then fixed in a 10% formalin solution. After manufacturing a paraffin block, a tissue was cut to manufacture a slide, and then stained using an ImmPRESS Anti-Rabbit Ig Kit (Catalog No. MP-7401) or an ImmPRESS Anti-Rat Ig Kit (Catalog No. MP-7404). As a primary antibody, NLRP3 (768319, Invitrogen, CA, USA), caspase1 (Ab138483, Abcam, Cambridge, UK), ASC (NBP1-78977, Novusbio, CO, USA), and IL-1β (AF5103, Affinity biosciences, OH, USA) were used. For reading of a tissue, a tissue slide was photographed at 100 magnification using an optical microscope (PANORAMIC MIDI II), and then an expression level of each slide was read using Case Viewer software.

NKG2D = assay: Flow cytometry analysis of lymph node, NKG2D MFI in pathogenic cell; details: enavogliflozin 1 mg/kg; completion of test; compared to vehicle group
Procedure: (§2) Skin-Draining Lymph Node cells of a mouse obtained at a time point of completion of a test were taken out of a nitrogen tank and used for flow cytometry analysis. Cells were analyzed by staining antibodies of L/D, CD3, CD4, CD8, CD44, CD49d, CD62L, and NKG2D without additional stimulation. A cell surface protein was quantitatively analyzed for stained cells using a FACSymphony A1 (Becton, Dickinson and Company, BD) apparatus. Thereafter, MFI and a positive cell population were confirmed using FlowJo (Becton, Dickinson and Company, BD, v. 10.0).
(§3) Experimental results were expressed as mean±standard error of the mean (SEM). GraphPad Prism version 7 software was used to confirm statistical significance. Significance verification of flow cytometry data used a Mann-Whitney test, and it was considered statistically significant when a p value was 0.05 or less.

IL-1β [2] = assay: Inflammatory factor protein expression (SDS-PAGE / immunoblot), IL-1β; details: enavogliflozin 0.1 and 1 mg/kg treated groups; 12 weeks; skin lysate; compared to vehicle group
Procedure: (§4) At 12 weeks, which is a time point of completion of test substance administration, skin was excised and lysed, and then a protein concentration was measured using a BCA protein assay kit (Bio-Rad, Hercules, CA, USA). A protein (20 µg) was separated by SDS-PAGE (polyacrylamide gel electrophoresis) and adsorbed onto a PVDF (polyvinylidene fluoride) membrane (Millipore Corp, Bedford, MA). A membrane was reacted in PBS containing 0.1% Tween-20 and 5% skim milk (non-fat milk), and reacted using a primary antibody diluted with 0.2% BSA (in PBS). After washing 3 times, a membrane was reacted with an HRP-conjugated secondary antibody (anti-rabbit IgG antibody (PI-1000) or anti-mouse IgG antibody (PI-2000), Vector Labs Inc., Burlingame, CA, USA), and a band was visualized with an ECL advance kit (ATTO, Tokyo, Japan).
(§5) Prism 10.0 software (GraphPad Software Inc., San Diego, CA, USA) was used for statistical analysis of data. Experimental results were expressed as mean±standard error of the mean (SEM). As a statistical method, a one-way analysis of variance (One-way ANOVA) was performed to verify a difference between each group, and a post hoc test for each type used a verification method through a Tukey function or Dunn's multiple comparison verification method. A significance level was set to p<0.05.

[3] = Plasma BHB concentration in alopecia areata mouse model; details: enavogliflozin 1 mg/kg; after 12 weeks, 24 hours fasting; no statistical significance compared to vehicle group
Procedure: (§6) An 8-week-old C3H/Hej female mouse was obtained, sufficiently supplied with solid feed (without antibiotics) and water until an experiment day, adapted in an environment of a temperature of 23±2°C, humidity of 55±10%, and a 12-hours light-dark cycle, and then used in an experiment.
(§7) An alopecia areata model was manufactured using a lymph node cell injection method. A lymph node cell was isolated from a mouse (donor) in which alopecia areata occurred, proliferated using Dynabead Mouse T-activator CD3/CD28, Human Recombinant IL-2, Mouse Recombinant IL-7, and Mouse Recombinant IL-15, and then injected into a C3H/Hej mouse (recipient) of 10 weeks of age or older by 1.5x10^7 cells/mouse intra-dermal injection to manufacture an alopecia areata model.
(§8) In order to evaluate alopecia areata efficacy of enavogliflozin in an alopecia areata mouse model manufactured by a lymph node cell injection method, a test group was set and evaluated as shown in Table 1 below.
An administration period of a test substance is 12 weeks, and a vehicle group and an enavogliflozin group were orally administered (P.O. injection) once every day (QD). […]
(§9) Prism 10.0 software (GraphPad Software Inc., San Diego, CA, USA) was used for statistical analysis of data. Experimental results were expressed as mean±standard error of the mean (SEM). […]

NLRP3 [4] = assay: Histological analysis (staining) of skin, NLRP3; details: enavogliflozin 1 mg/kg; 12 weeks; compared to vehicle group
Description: as §1

[5] = Dissolution test (Korean Pharmacopoeia Dissolution Test Method 2, Paddle Method); details: average particle size of enavogliflozin exceeds 15 um, dissolution medium 1.2
Procedure: Since a dissolution rate of an active ingredient in a pharmaceutical composition affects a maximum blood concentration (Cmax) and an area under a blood concentration-time curve (AUC) upon drug administration, conversely speaking, it is important to adjust a dissolution rate of a pharmaceutical composition to implement an appropriate Cmax and AUC. Since enavogliflozin has a Tmax of 1 to 2 hours, a drug absorption rate in the stomach is judged to be important. The dissolution rate is measured under a condition of a dissolution medium 1.2 by a Korean Pharmacopoeia Dissolution Test Method 2 (Paddle Method). Specific conditions may refer to the following experimental examples.

ASC [6] = assay: Inflammatory factor protein expression (SDS-PAGE / immunoblot), ASC; details: enavogliflozin 0.1 and 1 mg/kg treated groups; 12 weeks; skin lysate; compared to vehicle group
Procedure: as §4, §5

NLRP3 [7] = assay: Inflammatory factor protein expression (SDS-PAGE / immunoblot), NLRP3; details: enavogliflozin 0.1 and 1 mg/kg treated groups; 12 weeks; skin lysate; compared to vehicle group
Procedure: as §4, §5

IL-1β [8] = assay: Histological analysis (staining) of skin, IL-1β; details: enavogliflozin 1 mg/kg; 12 weeks; compared to vehicle group
Description: as §1

Caspase-1 [9] = assay: Inflammatory factor protein expression (SDS-PAGE / immunoblot), Caspase-1; details: enavogliflozin 0.1 and 1 mg/kg treated groups; 12 weeks; skin lysate; compared to vehicle group
Procedure: as §4, §5

[10] = test system: pathogenic cell (CD44s-hi); assay: Flow cytometry analysis of lymph node, pathogenic cell ratio; details: enavogliflozin-administered group compared to vehicle group; completion of test
Procedure: as §2, §3

[11] = test system: alopecia areata mouse model; assay: AA lesion size in alopecia areata mouse model; details: 12 weeks of final administration, compared to vehicle group
Procedure: as §6, §7
In order to evaluate alopecia areata efficacy of enavogliflozin in an alopecia areata mouse model manufactured by a lymph node cell injection method, a test group was set and evaluated as shown in Table 1 below. […]
A size of alopecia areata was photographed once every 2 weeks using a digital camera (DSLR), and a ratio of an area where a symptom occurred to a total area of an individual was expressed as % by image J (National Institutes of Health). […]
as §9

[12] = test system: alopecia areata mouse model; assay: Disease-free ratio in alopecia areata mouse model (lymph node cell injection method); details: cell also prints n/N
Procedure: as §6, §7, §8
As a test substance, enavogliflozin 0.1 mg/kg and 1 mg/kg were used. A vehicle group was prepared in 0.5% Carboxymethyl cellulose sodium salt with 1% Tween80, stored at 4°C, and used.
At 4 weeks after injecting a lymph node cell into a mouse, upon visual confirmation of alopecia areata, individuals were selected and divided into groups, and administration of a test substance was started.
An administration period of a test substance is 12 weeks, and a vehicle group and an enavogliflozin group were orally administered (P.O. injection) once every day (QD).
as §5, with “function (Tukey's test)” for “function”, “method (Dunn's multiple comparison test).” for “method.”

ASC [13] = assay: Histological analysis (staining) of skin, ASC; details: enavogliflozin 1 mg/kg; 12 weeks; compared to vehicle group
Description: as §1

OC[C@H]1O[C@@H](c2cc(Cc3ccc(C4CC4)cc3)c(Cl)c3c2CCO3)[C@H](O)[C@@H](O)[C@@H]1O
expression of Caspase-1 in skin (staining) (Caspase-1 [1]): decreased | MFI value of NKG2D in a pathogenic cell (NKG2D): significant decrease | IL-1β protein expression (IL-1β [2]): significantly decreased in a dose-dependent manner | plasma BHB concentration [3]: trend of increasing | expression of NLRP3 in skin (staining) (NLRP3 [4]): decreased | 5-minute dissolution rate ([5]; % of total content of enavogliflozin): less than 40% | 30-minute dissolution rate [5]: less than 80% | ASC protein expression (ASC [6]): significantly decreased in a dose-dependent manner | NLRP3 protein expression (NLRP3 [7]): significantly decreased in a dose-dependent manner | expression of IL-1β in skin (staining) (IL-1β [8]): decreased | Caspase-1 protein expression (Caspase-1 [9]): significantly decreased in a dose-dependent manner | ratio of a pathogenic cell (CD44s-hi) in a lymph node cell [10]: did not show a significant ratio decrease | size in which alopecia areata occurred ([11]; enavogliflozin 0.1 mg/kg PO QD): size in which alopecia areata occurred was small | size in which alopecia areata occurred ([11]; enavogliflozin 1 mg/kg PO QD): significant difference was shown compared to the vehicle group | Disease-free ratio ([12]; ENA 0.1 mg/kg PO QD, week 0 of administration): 3/6 (50%) | Disease-free ratio ([12]; ENA 0.1 mg/kg PO QD, week 2): 2/6 (33.3%) | Disease-free ratio ([12]; ENA 0.1 mg/kg PO QD, week 3): 2/6 (33.3%) | Disease-free ratio ([12]; ENA 0.1 mg/kg PO QD, week 4): 1/6 (16.7%) | Disease-free ratio ([12]; ENA 0.1 mg/kg PO QD, week 5): 1/6 (16.7%) | Disease-free ratio ([12]; ENA 0.1 mg/kg PO QD, week 8): 1/5 (20%) | Disease-free ratio ([12]; ENA 0.1 mg/kg PO QD, week 10): 1/5 (20%) | Disease-free ratio ([12]; ENA 0.1 mg/kg PO QD, week 12): 1/5 (20%) | Disease-free ratio ([12]; ENA 1 mg/kg PO QD, week 0 of administration): 3/6 (50%) | Disease-free ratio ([12]; ENA 1 mg/kg PO QD, week 2): 2/6 (33.3%) | Disease-free ratio ([12]; ENA 1 mg/kg PO QD, week 3): 3/6 (50%) | Disease-free ratio ([12]; ENA 1 mg/kg PO QD, week 4): 3/6 (50%) | Disease-free ratio ([12]; ENA 1 mg/kg PO QD, week 5): 3/6 (50%) | Disease-free ratio ([12]; ENA 1 mg/kg PO QD, week 8): 2/6 (33.3%) | Disease-free ratio ([12]; ENA 1 mg/kg PO QD, week 10): 2/6 (33.3%) | Disease-free ratio ([12]; ENA 1 mg/kg PO QD, week 12): 1/6 (16.7%) | expression of ASC in skin (staining) (ASC [13]): decreased
